Test results as given in publication PMC10450872 (ACS Central Science, 2023).

Amino acid sequences for entries named in this document (tags omitted). A change or cut given only in a name is not applied to a line headed by its entry.
UniProt P41145: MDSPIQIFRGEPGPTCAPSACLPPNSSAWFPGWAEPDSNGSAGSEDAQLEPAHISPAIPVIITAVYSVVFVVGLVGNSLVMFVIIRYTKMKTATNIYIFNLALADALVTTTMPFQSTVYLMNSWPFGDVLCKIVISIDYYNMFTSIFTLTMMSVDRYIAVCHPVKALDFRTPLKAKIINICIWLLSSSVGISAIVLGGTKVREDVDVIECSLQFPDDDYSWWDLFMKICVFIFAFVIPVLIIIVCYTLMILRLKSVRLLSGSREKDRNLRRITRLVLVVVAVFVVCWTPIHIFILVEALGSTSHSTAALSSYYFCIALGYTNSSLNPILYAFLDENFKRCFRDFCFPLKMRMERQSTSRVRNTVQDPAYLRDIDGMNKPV

Legend:
[1] = estimated; cited from earlier work
[2] = to 8-epi-SalA under acidic, basic, and thermal conditions; cited from earlier work
KOR = conditions: cited from earlier work
hKOR (OPRK1) = hKOR (OPRK1) (Homo sapiens, UniProt P41145); conditions: Table S1; normalized to baseline and maximum response of 10 μM U69,593
hKOR = hKOR (Homo sapiens, UniProt P41145); conditions: Table S1; normalized to 10 μM U69,593; values in brackets where the curve did not converge

COC(=O)[C@@H]1C[C@H](OC(C)=O)C(=O)[C@H]2[C@@]1(C)CC[C@H]1C(=O)O[C@H](c3ccoc3)C[C@]21C
total human brain content causing psychoactive effects [1]: 10 µg
Keq of C8 epimerization [2]: 2.5

C16-bromo-salvinorin A
bias factor, G protein signaling over β-arrestin2 recruitment (KOR): 7.7

CN(C(=O)Cc1ccccc1)[C@H]1CC[C@@]2(CCCO2)C[C@@H]1N1CCCC1
cAMP Emax (hKOR (OPRK1)): 100%
βarrestin2 Emax (hKOR): 100%
